## AlphaSeq binding of Ab-14 light chain variants to a spike HR2 peptide

All variants were tested on one target, the spike HR2 peptide PDVDLGDISGINAS (SARS-CoV-2).

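The starting antibody came from a phage panning campaign against this peptide. This is the validation round: designs drawn from the data on random variants, tested in the same kind of assay. Several design methods are mixed in this list. In AlphaSeq, yeast of one mating type display the scFv and yeast of the other type display the target. The frequency of each diploid, read from paired DNA barcodes, reflects how well the two displayed proteins bind. A regression on co-assayed BCL2-family reference pairs converts the normalised counts of each replicate to an apparent Kd. Mating was done six times.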

Each scFv is VH, a (GGGGS)3 linker, VL, as in the parent Ab-14, and differs from it in the CDRs of the light chain only.
VH: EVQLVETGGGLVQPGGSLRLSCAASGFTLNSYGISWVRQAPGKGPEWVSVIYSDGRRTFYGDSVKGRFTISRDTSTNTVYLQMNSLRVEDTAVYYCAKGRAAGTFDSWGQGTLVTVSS
VL: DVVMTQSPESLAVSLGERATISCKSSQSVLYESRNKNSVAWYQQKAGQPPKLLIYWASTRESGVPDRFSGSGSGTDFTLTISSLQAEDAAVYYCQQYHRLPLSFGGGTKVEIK

Sequences are complete VL domains.
Variants here have at most six changes.
Kd is apparent (estimated from mating counts) and averaged on the log scale over replicates with a signal. Smaller is tighter.
An entry "no signal" has no value in the source: the pair was not observed among the diploids in any replicate. This suggests poor binding but is not conclusive.
In the paper, a design with two or fewer of six values counts as a poor binder.
The parent sequence was in this pool as ten entries: three were never detected, three once, and four in most replicates, with averages from 2.2 nM to 240 nM.
Background: pairings of all light chain designs with three empty control strains gave a value in 4% of cases (median 430 nM, 5th percentile 38 nM). Values in that range, when seen in few replicates, are hard to tell from nonspecific mating.
A sequence measured in both rounds can read differently, since the two assays cover different ranges.

Variant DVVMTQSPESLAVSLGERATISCKSSNSYLYESMNKNSVAWYQQKAGQPPKLLIYNGSTRESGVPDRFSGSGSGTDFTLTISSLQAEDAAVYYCQQYHRLPLSFGGGTKVEIK gave 2.9 nM (6 of 6 replicates).
Variant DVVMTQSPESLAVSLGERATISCKSSKSVLFESRNKNSVAWYQQKAGQPPKLLIYNASTREDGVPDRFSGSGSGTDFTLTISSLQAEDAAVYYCQQYHRLPLSFGGGTKVEIK gave 3.6 nM (6 of 6 replicates).
Variant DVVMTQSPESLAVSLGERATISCKSSQSVLYESRNENSVAWYQQKAGQPPKLLIYDASTRESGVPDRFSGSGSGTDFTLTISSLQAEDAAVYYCQSYNRLPLSFGGGTKVEIK gave 13 nM (6 of 6 replicates).
Variant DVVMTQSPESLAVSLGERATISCKVSQEVLYESRNKNSVAWYQQKAGQPPKLLIYDASTRESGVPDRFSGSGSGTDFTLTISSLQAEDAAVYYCQQYHRLPLSFGGGTKVEIK gave 360 pM (6 of 6 replicates).
Variant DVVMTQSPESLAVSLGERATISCKSDQGELYESRNKNSVAWYQQKAGQPPKLLIYGASTRESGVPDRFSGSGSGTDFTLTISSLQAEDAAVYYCQQYHRLPLSFGGGTKVEIK gave 560 pM (6 of 6 replicates).
Variant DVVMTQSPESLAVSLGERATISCVLSQSVLYESRNKNSVAWYQQKAGQPPKLLIYNASQRLSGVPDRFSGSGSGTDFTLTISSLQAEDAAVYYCQQYHRLPLSFGGGTKVEIK gave 1.4 nM (6 of 6 replicates).
Variant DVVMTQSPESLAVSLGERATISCKVSQSNLYESRNKNSVAWYQQKAGQPPKLLIYNASYRESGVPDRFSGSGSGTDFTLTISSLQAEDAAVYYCQQYHRLPLSFGGGTKVEIK gave 730 pM (6 of 6 replicates).
Variant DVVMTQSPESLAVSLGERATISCKLQQSVMYESRNKNSVAWYQQKAGQPPKLLIYEASTRESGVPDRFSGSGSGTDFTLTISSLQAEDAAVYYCQQYHRLPLSFGGGTKVEIK gave 680 pM (6 of 6 replicates).
Variant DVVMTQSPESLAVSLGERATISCSSSQSVLVESRNKNSVAWYQQKAGQPPKLLIYGASLRESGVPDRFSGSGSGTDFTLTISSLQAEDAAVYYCQQYHRLPLSFGGGTKVEIK gave no signal (0 of 6 replicates).
Variant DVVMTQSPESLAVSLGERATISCILSQSVLYESRNKNHVAWYQQKAGQPPKLLIYWATTRESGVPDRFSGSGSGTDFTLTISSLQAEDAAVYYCQQYHRLPLSFGGGTKVEIK gave 50 nM (6 of 6 replicates).
Variant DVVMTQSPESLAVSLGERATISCKLSQSVLYESRNPNSVAWYQQKAGQPPKLLIYNASTRMSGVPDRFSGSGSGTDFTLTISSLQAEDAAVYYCQQYHRLPLSFGGGTKVEIK gave 470 pM (6 of 6 replicates).
Variant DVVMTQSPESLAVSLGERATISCKSGQGVLYEYRNKNSGAWYQQKAGQPPKLLIYGASTRESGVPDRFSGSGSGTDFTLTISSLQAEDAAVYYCQQYHRLPLSFGGGTKVEIK gave no signal (0 of 6 replicates).
Variant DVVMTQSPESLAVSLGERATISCKSSQYVLYESRNKNSVAWYQQKAGQPPKLLIYGASTRESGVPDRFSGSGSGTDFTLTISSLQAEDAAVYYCQQYHRLPLSFGGGTKVEIK gave 4.1 nM (6 of 6 replicates).
Variant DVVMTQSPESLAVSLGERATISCKVSQSNLYESRNKNNVAWYQQKAGQPPKLLIYNASTRESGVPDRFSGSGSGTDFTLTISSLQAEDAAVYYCQQYHRLPLSFGGGTKVEIK gave 2.3 nM (6 of 6 replicates).
Variant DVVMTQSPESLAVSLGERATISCKSSQSALYYSRNKNSVAWYQQKAGQPPKLLIYDASTRMSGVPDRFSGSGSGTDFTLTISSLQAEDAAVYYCQQYHRLPLSFGGGTKVEIK gave 2.2 nM (6 of 6 replicates).

A selection of 2 entries from above:

With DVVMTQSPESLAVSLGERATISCKLSQSVLYESRNPNSVAWYQQKAGQPPKLLIYNASTRMSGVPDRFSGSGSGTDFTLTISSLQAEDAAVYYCQQYHRLPLSFGGGTKVEIK the result was 470 pM (6 of 6 replicates).
With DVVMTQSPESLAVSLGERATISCKSSQSALYYSRNKNSVAWYQQKAGQPPKLLIYDASTRMSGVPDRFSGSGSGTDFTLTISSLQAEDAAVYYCQQYHRLPLSFGGGTKVEIK the result was 2.2 nM (6 of 6 replicates).

Data: MIT Lincoln Laboratory AlphaSeq set, Li et al. 2023, doi:10.1038/s41467-023-39022-2, as distributed in FLAb.